Values of other authors as cited in publication PMC6259150.

Molecular target: … peptide (synthetic construct)

concanavalin A (from UniProt P02866)
Kd: 46 µM
